Legend:
[1] = molecular target: human A2a receptor subtype (Homo sapiens, UniProt P29274); assay: Adenosine 2a receptor subtype competition radioligand binding, [3H]CGS-21680, HEK293 membranes; conditions: @ 10 μM; tested form: ammonium salt (drawn as NH3 with a charg)
[2] = molecular target: human A3 receptor subtype (Homo sapiens, UniProt P0DMS8); assay: Adenosine 3 receptor competition radioligand binding, [125I]AB-MECA, HEK293 membranes; conditions: @ 10 μM

Amino acid sequences for entries named in this document (tags omitted).
UniProt P0DMS8, whole entry: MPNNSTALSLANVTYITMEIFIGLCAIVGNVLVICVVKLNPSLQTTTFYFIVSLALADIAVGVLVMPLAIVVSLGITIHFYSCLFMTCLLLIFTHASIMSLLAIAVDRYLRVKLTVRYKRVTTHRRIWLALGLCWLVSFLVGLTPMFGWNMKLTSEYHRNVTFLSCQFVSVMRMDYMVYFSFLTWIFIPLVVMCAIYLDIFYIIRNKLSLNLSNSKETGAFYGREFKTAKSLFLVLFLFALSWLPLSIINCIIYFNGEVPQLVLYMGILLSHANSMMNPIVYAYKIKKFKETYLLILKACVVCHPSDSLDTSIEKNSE

| SMILES | % activity A2a [1] [%] | % activity A3 [2] [%^8] |
| --- | --- | --- |
| Cc1[nH]c2nc(-c3ccccc3)nc(NCCNC(=O)C3(N)CC3)c2c1C | 65 | – |
| O[C@H]1CC[C@H](Nc2nc(-c3ccncc3)nc3[nH]ccc23)CC1 | – | 54 |

— patent US7504407B2, “Compounds specific to adenosine A1 and A3 receptors and uses thereof” (OSI Pharmaceuticals, Inc., priority 2001, dated 2009)
